{"source": "paper PMC2453524", "origin": "cited, not measured here", "key": {"STAM2 (Homo sapiens)": {"target": "STAM2 (Homo sapiens) (UniProt O75886)"}, "Hrs (Homo sapiens)": {"target": "Hrs (Homo sapiens) (UniProt O14964)"}}, "data": [{"substance": "Ubiquitin (from UniProt P0CG47)", "values": [{"measurement": "Kd", "setting": "STAM2 (Homo sapiens)", "value": 10, "unit": "µM"}, {"measurement": "Kd", "setting": "Hrs (Homo sapiens)", "value": 200, "unit": "µM"}]}]}
